Measured values from patent US20100278938A1, “GENETIC TEST AND PET DIET” (MARS, INC, priority 2007, published 2010).

Assay: Pharmacokinetic study of oral zinc gluconate, plasma zinc by atomic absorption spectrometry
Assay type: in vivo, Labrador Retrievers
Conditions: from both dogs
Experimental: Two unrelated nine-year old, healthy Labrador Retrievers (1 female and 1 male) were used in a pharmacokinetic study. Food was withheld for a 12-hour period prior to oral administration of zinc, and during the initial 6-hour testing period. Water was freely available. Oral zinc gluconate was administered at a dose of 10 mg/kg in dog 1, and at a dose of 5 mg/kg in dog 2. Heparinized blood samples (4 ml) were collected from the jugular vein before dosing (time 0) and 15, 30, 45, 60, 90, 120 minutes, and 4, 8, 12 and 24 hours after application of the drug. Plasma was stored at −20° C. until analysis for zinc using atomic absorption spectrometry.
Pharmacokinetic parameters (WinNonlin 4.0.1. (Pharsight Corporation, 800 West El Camino Real, Mountain View, Calif., USA) and statistical analysis (SPSS 11.0 for windows, 2001, SPSS Inc., Chicago, Ill., USA) were calculated by use of commercially available software packages. Due to small group sizes a non-parametric statistical test was used for comparison between groups. A Mann-Whitney test was used to detect a difference between hepatic copper concentrations before and after treatment with diet and zinc-gluconate (group-1) at two control examinations (recheck-1 and recheck-2), and after treatment with diet and placebo (group-2) at both control examinations. […]

zinc gluconate
calculated half-life t′/2: 15.1 h
